From patent US20130037744A1, “CARBOXYL-FUNCTIONALIZED SILICON-CONTAINING PRECURSOR COMPOUND OF VARIOUS ORGANIC CARBOXYLIC ACIDS” (EVONIK DEGUSSA GmbH, priority 2010, published 2013)

Experiment: Solubility investigation in solvent (vinyltrimethoxysilane)
Format: physicochemical
Text: Solubility Investigation in Solvent: Solubility Investigation in Solvent: Solubility Investigation in Different Solvents Solubility Investigation in the Solvent Solubility Investigation in Solvent Solubility Investigation in Solvent Solubility Investigation in Solvent Solubility Investigation in Solvent Solubility Investigation in Solvent

Vinylcarboxysilane from Myristic, Palmitic and Stearic Acid [Example 1.2]
Solubility in vinyltrimethoxysilane (VTMO): <1.0%

Vinylcarboxysilane from Lauric, Myristic, and Caprylic Acid [Example 1.1]
Solubility in vinyltrimethoxysilane (VTMO): >50%
